Data from patent US9296745B2, “Diacylglycerol acyltransferase 2 inhibitors” (Pfizer Inc., priority 2012, dated 2016).

Sequences of proteins named here, by UniProt entry; tags and fusion partners are left off. A change or cut given only in a name is not applied to a line headed by its entry.
UniProt Q96PD7: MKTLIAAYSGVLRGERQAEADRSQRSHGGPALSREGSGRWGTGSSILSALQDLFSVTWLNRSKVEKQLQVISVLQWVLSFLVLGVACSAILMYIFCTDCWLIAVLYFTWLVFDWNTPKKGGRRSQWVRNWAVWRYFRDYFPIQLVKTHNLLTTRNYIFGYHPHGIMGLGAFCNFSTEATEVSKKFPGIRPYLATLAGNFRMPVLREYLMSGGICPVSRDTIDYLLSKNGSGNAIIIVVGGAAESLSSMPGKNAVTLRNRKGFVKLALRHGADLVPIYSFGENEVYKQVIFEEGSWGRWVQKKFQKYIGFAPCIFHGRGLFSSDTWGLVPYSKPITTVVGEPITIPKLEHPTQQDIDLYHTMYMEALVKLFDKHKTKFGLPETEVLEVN

Experiments:
DGAT2 = DGAT2 (Homo sapiens (Human), UniProt Q96PD7); assay: IC50 determination for DGAT2 inhibitors in human hepatocytes ([1,3-14C]-glycerol incorporation into lipids); format: cell-based; settings: average IC50, cryopreserved human hepatocytes, selective DGAT1 inhibitor (3 μM) in all wells, 3 hour incubation with [1,3-14C]-glycerol, read-out: IC50 (nM) in primary human hepatocyte
Description: For evaluation of the effects of DGAT2 inhibitors in a cell-based setting, cryopreserved human hepatocytes (Lot QOC, Celsis, Chicago, Ill.) were thawed and plated onto type I collagen-coated plates according to the manufacturer's instructions. After 24 hours overnight recovery period, the cells were overlayed with media containing 250 μg/ml Matrigel (BD Biosciences, San Jose, Calif.). The following day, media was aspirated and replaced with serum-free Williams Media E (Life Technologies, Grand Island, N.Y.) containing 400 μM sodium dodecanoate (Sigma-Aldrich, St. Louis, Mo.). Forty minutes later, DGAT2 inhibitors (prepared as 100× stocks in 25% DMSO, 75% Williams' Media E) were added to the desired final concentration. […] After a 20 minute preincubation, 0.2 μCi [1,3-^14C]-glycerol (American Radio Chemicals, St. Louis, Mo.) was added to each well and mixed by gentle pipetting prior to a 3 hour incubation. At this point, media was aspirated and the cells were lysed in isopropyl alcohol:tetrahydrofuran (9:1) prior to centrifugation at 3000 rpm for 5 minutes. […] The half maximal inhibitory concentrations (IC50 values) were determined using Graph Pad Prism (GraphPad Software, Inc., La Jolla, Calif.). […]

Human DGAT2 (hDGAT2) = Human DGAT2 (hDGAT2) (Homo sapiens (Human), UniProt Q96PD7); assay: In vitro DGAT2 assay, IC50 determination with hDGAT2 membrane fraction; format: biochemical; settings: geometric mean
Description: Recombinant baculovirus for the FLAG-tagged hDGAT2 was generated in SF9 insect cells using Bac-to-Bac baculovirus expression system (Invitrogen) according to the manufacturer's protocol. For the expression of hDGAT2, SF9 cells (20 L) grown in Sf900II media were infected with hDGAT2 baculovirus at a multiplicity of infection of 1 in a Wave Bioreactor System 20/50P wave bag (GE Healthcare). After 40 hours of infection, the cells were then harvested by centrifugation at 5,000×g. The cell pellets were washed by resuspending in phosphate buffered saline (PBS) and collected by centrifugation at 5,000×g. The cell paste was flash frozen in liquid N2 and stored at −80° C. until needed. All operations below were at 4° C. unless otherwise noted. The cells were resuspended in lysis buffer (50 mM Tris-HCl, pH 8.0, 250 mM sucrose) including 1 mM ethylenediaminetetraacetic acid (EDTA) and the complete protease inhibitor cocktail (Roche Diagnostics) at a ratio of 3 ml buffer per 1 g cell paste. The cells were lysed by dounce homogenizer. The cell debris was removed by centrifugation at 1,000×g for 20 min, and the supernatant was centrifuged at 100,000×g for 1 hour. The resulting pellet was rinsed three times by filling ultracentrifuge tubes to the top with ice cold PBS before decanting. […]
To 1 μL of compounds dissolved in 100% DMSO and spotted at the bottom of each well, 5 μL of 0.04% bovine serum albumin (BSA) (fatty acid free, Sigma Aldrich) was added and the mixture was incubated at room temperature for 20 minutes. […] Plates were centrifuged at 2,000×g for 1 min in an Allegra 6R Centrifuge (Beckman Coulter) and then were sealed again with fresh covers before reading in a 1450 Microbeta Wallac Trilux Scintillation Counter (Perkin Elmer). DGAT2 activity was measured by quantifying the generated product [^14C]tridecanoylglycerol in the upper organic phase. […]

SMILES | IC50 (DGAT2) | IC50 (Human DGAT2 (hDGAT2); background for complete inhibition of DGAT2 obtained with 50 μM (1R,2R)-2-({3′-Fluoro-4′-[(6-fluoro-1,3-benzothiazol-2-yl)amino]-1,1′-biphenyl-4-yl}carbonyl)cyclopentanecarboxylic acid, read-out: DGAT2 IC50) | IC50 (DGAT2; methanesulfonate) | IC50 (Human DGAT2 (hDGAT2); background for complete inhibition of DGAT2 obtained with 50 μM (1R,2R)-2-({3′-Fluoro-4′-[(6-fluoro-1,3-benzothiazol-2-yl)amino]-1,1′-biphenyl-4-yl}carbonyl)cyclopentanecarboxylic acid, methanesulfonate, read-out: DGAT2 IC50) | IC50 (Human DGAT2 (hDGAT2); background for complete inhibition of DGAT2 obtained with Example 196-A instead of the cyclopentanecarboxylic acid reference, read-out: DGAT2 IC50 (nM), values in the parentheses)
O=C([C@@H]1CCCN(c2ccc3nc(C4(n5cc(Cl)cn5)CC4)[nH]c3n2)C1)N1CCCC1 [Example 109-A, (R)-(1-(2-(1-(4-Chloro-1H-pyrazol-1-yl)cyclopropyl)-3H-imidazo[4,5-b]pyridin-5-yl)piperidin-3-yl)(pyrrolidin-1-yl)methanone] | 2.1 nM | 13.8 nM | – | – | –
O=C([C@@H]1CCCN(c2ccc3nc(C4(n5cc(Cl)cn5)CC4)[nH]c3n2)C1)N1CCCC1 [Example 109-B, (R)-(1-(2-(1-(4-Chloro-1H-pyrazol-1-yl)cyclopropyl)-3H-imidazo[4,5-b]pyridin-5-yl)piperidin-3-yl)(pyrrolidin-1-yl)methanone methanesulfonate] | – | – | 5.5 nM | 20.2 nM | 15 nM

Like-named read-outs stand apart in the source and are kept apart here.
